CycPeptMPDB entries from one study

Data: CycPeptMPDB; original report Furukawa et al. 2016, doi:10.1021/acs.jmedchem.6b01246.

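Lipid, pH, incubation time, direction and concentration are not recorded in the data file. The list need not hold all peptides of the study. Entries at the database's floor value (log10 P of -10) are not listed.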

PAMPA measures passive passage through an artificial lipid membrane.
Permeability is given as log10 of P in cm/s; higher (less negative) is more permeable.

compound | PAMPA (log10 cm/s)
CCCC[C@@H]1NC(=O)[C@H](CC(C)C)N(C)C(=O)CN(CCOC)C(=O)[C@H](C)NC(=O)CN(Cc2ccc(Cl)cc2)C(=O)[C@H]2CCCN2C1=O | -5.25
CCCC[C@@H]1NC(=O)[C@H](CC(C)C)N(C)C(=O)CN(CCOC)C(=O)[C@H](CC(C)C)NC(=O)CN(Cc2cc(CC(C)C)on2)C(=O)[C@H]2CCCN2C1=O | -5.11
CCCC[C@@H]1NC(=O)[C@H](CC(C)C)N(C)C(=O)CN(CC2CCOCC2)C(=O)[C@H](Cc2ccc3ccccc3c2)NC(=O)CN(Cc2ccccc2Cn2cccn2)C(=O)[C@H]2CCCN2C1=O | -6.29
CCCC[C@@H]1NC(=O)[C@H](CC(C)C)N(C)C(=O)CN(CCOc2ccccc2)C(=O)[C@H](Cc2ccc3ccccc3c2)NC(=O)CN(Cc2ccccc2Cn2cccn2)C(=O)[C@H]2CCCN2C1=O | -7.68
CCCC[C@@H]1NC(=O)[C@H](CC(C)C)N(C)C(=O)CN(CC2CCOCC2)C(=O)[C@H](Cc2ccccc2)NC(=O)CN(Cc2ccc(Cl)cc2)C(=O)[C@H]2CCCN2C1=O | -6.00
CCCC[C@@H]1NC(=O)[C@H](CC(C)C)N(C)C(=O)CN(Cc2ccccc2)C(=O)[C@H](CC(C)C)NC(=O)CN(CCC)C(=O)[C@H]2CCCN2C1=O | -5.20
CCCC[C@@H]1NC(=O)[C@H](CC(C)C)N(C)C(=O)CN(CCCc2cnn(C)c2)C(=O)[C@H](C)NC(=O)CN(CC(C)C)C(=O)[C@H]2CCCN2C1=O | -6.43
CCCC[C@@H]1NC(=O)[C@H](CC(C)C)N(C)C(=O)CN(Cc2ccccc2)C(=O)[C@H](Cc2ccc3ccccc3c2)NC(=O)CN(CCCCc2ccccc2)C(=O)[C@H]2CCCN2C1=O | -8.95
CCCC[C@@H]1NC(=O)[C@H](CC(C)C)N(C)C(=O)CN(CCc2cccnc2)C(=O)[C@H](CC(C)C)NC(=O)CN(CCN2CCOCC2)C(=O)[C@H]2CCCN2C1=O | -6.58
CCCCCN1CC(=O)N(C)[C@@H](CC(C)C)C(=O)N[C@@H](CCCC)C(=O)N2CCC[C@@H]2C(=O)N(CC)CC(=O)N[C@@H](Cc2ccc3ccccc3c2)C1=O | -6.49
CCCC[C@@H]1NC(=O)[C@H](CC(C)C)N(C)C(=O)CN(CCCc2cnn(C)c2)C(=O)[C@H](Cc2ccc3ccccc3c2)NC(=O)CN(CCCOC(C)C)C(=O)[C@H]2CCCN2C1=O | -5.44
CCCC[C@@H]1NC(=O)[C@H](CC(C)C)N(C)C(=O)CN(CCCN2CCCC2=O)C(=O)[C@H](C)NC(=O)CN(CC)C(=O)[C@H]2CCCN2C1=O | -8.28
CCCC[C@@H]1NC(=O)[C@H](CC(C)C)N(C)C(=O)CN(CCCc2ccccc2)C(=O)[C@H](C)NC(=O)CN(CCCOC(C)C)C(=O)[C@H]2CCCN2C1=O | -4.88
CCCC[C@@H]1NC(=O)[C@H](CC(C)C)N(C)C(=O)CN(CC2CCOCC2)C(=O)[C@H](C)NC(=O)CN(CCC)C(=O)[C@H]2CCCN2C1=O | -6.69
CCCC[C@@H]1NC(=O)[C@H](CC(C)C)N(C)C(=O)CN(CC2CCCCC2)C(=O)[C@H](Cc2ccc3ccccc3c2)NC(=O)CN(Cc2ccc3c(c2)OCO3)C(=O)[C@H]2CCCN2C1=O | -9.12
CCCC[C@@H]1NC(=O)[C@H](CC(C)C)N(C)C(=O)CN(CCCN2CCCC2=O)C(=O)[C@H](CC(C)C)NC(=O)CN(Cc2ccccc2Cn2cccn2)C(=O)[C@H]2CCCN2C1=O | -6.30
CCCC[C@@H]1NC(=O)[C@H](CC(C)C)N(C)C(=O)CN(CC2CCOCC2)C(=O)[C@H](Cc2ccccc2)NC(=O)CN(Cc2cc(CC(C)C)on2)C(=O)[C@H]2CCCN2C1=O | -5.45

The last 3 entries again:

compound | PAMPA (log10 cm/s)
CCCC[C@@H]1NC(=O)[C@H](CC(C)C)N(C)C(=O)CN(CC2CCCCC2)C(=O)[C@H](Cc2ccc3ccccc3c2)NC(=O)CN(Cc2ccc3c(c2)OCO3)C(=O)[C@H]2CCCN2C1=O | -9.12
CCCC[C@@H]1NC(=O)[C@H](CC(C)C)N(C)C(=O)CN(CCCN2CCCC2=O)C(=O)[C@H](CC(C)C)NC(=O)CN(Cc2ccccc2Cn2cccn2)C(=O)[C@H]2CCCN2C1=O | -6.30
CCCC[C@@H]1NC(=O)[C@H](CC(C)C)N(C)C(=O)CN(CC2CCOCC2)C(=O)[C@H](Cc2ccccc2)NC(=O)CN(Cc2cc(CC(C)C)on2)C(=O)[C@H]2CCCN2C1=O | -5.45